From patent US12429487B2, “Neurofilament protein for guiding therapeutic intervention in amyotrophic lateral sclerosis” (Biogen MA Inc., priority 2018, dated 2025)

Tested on: ALS patient
Assay: Prophetic example: switching therapeutics in an ALS patient
Format: in vivo, human
Details: after 3 months of treatment, vs initial level
Method: The patient's serum neurofilament protein level is measured and is determined to be at a level which will be called the initial level. The patient's physician will ask the patient to take an ALSFRS-R assessment every six months. […] The physician will then advise the patient to switch to another therapeutic (e.g., edarovone that may be efficacious to that patient) prior to the patient taking their six month ALSFRS-R test.

Nc1nc2ccc(OC(F)(F)F)cc2s1 [riluzole]
serum neurofilament protein level: higher than the initial level
